Here are results for one compound from BindingDB's records for doi:10.1021/jm00011a008 (Upjohn, 1995).

This assay deals with T1, Dimer of Gag-Pol polyprotein [489-587] (Human immunodeficiency virus 1, UniProt P12497).
T1 construct: 489-587
Briefly: Protease Inhibition Assay. The conditions noted are these: pH 5; 22 °C. The source says:
HIV-1 protease was purified and refolded from E. coli inclusion bodies. The substrate used spans the p17-p24 processing site (R-V-S-Q-N-Y-P-I-V-Q-N-K) and was derivatized with biotin and fluorescein isothiocyanate (FITC) at the amino and carboxy termini. In the presence of HIV-l protease, the substrate is rapidly cleaved into two parts. The biotinylated amino terminal fragment binds to the avidin beads while the FITC-containing carboxy1 terminal fragment is removed through the membrane. […] The bound fluorescence is obtained by processing on an IDEXX Screen Machine. Determination of Ki values with this assay requires analysis under conditions in which substrate concentration resides substantially below Km and the inhibitor concentrations greatly exceeds the Ki value and the enzyme concentration.

SMILES strings stand for the structures.

Usually Ki stands for a dissociation constant, usually derived from enzyme kinetics or from competition with a known ligand. A lower Ki goes with a stronger hold on the target. `O=c1oc2c(c(O)c1C(C1CC1)C1CC1)CCCCCC2` [3-(dicyclopropylmethyl)-4-hydroxy-2H,5H,6H,7H,8H,9H,10H-cycloocta[b]pyran-2-one] came in with a Ki of 57 nM.
